Laboratory results from patent US4886667A, “External preparation composition” (priority 1985, dated 1989).

Legend:
[1] = tested on: Peptostreptococcus sp. (22 isolated strains); test: MIC against clinically isolated strains (cumulation percent)
[2] = tested on: Bacteroides fragilis (48 isolated strains); test: as above; type: cell-based; details: MIC 3.13 μg/ml

CN(C)[C@@H]1C(=O)C(C(N)=O)=C(O)[C@@]2(O)C(=O)C3=C(O)c4c(O)cccc4[C@@](C)(O)[C@H]3C[C@@H]12 [R, Tetracycline]
Cumulation percent of MIC ([1]; MIC 0.39 μg/ml): 5% | Cumulation percent of MIC ([1]; MIC 0.78 μg/ml): 9% | Cumulation percent of MIC ([1]; MIC 1.56 μg/ml): 14% | Cumulation percent of MIC ([1]; MIC 6.25 μg/ml): 32% | Cumulation percent of MIC ([1]; MIC 25 μg/ml): 68% | Cumulation percent of MIC ([1]; MIC 100 μg/ml): 100%

CC1=C(C(=O)O)N2C(=O)[C@@H](NC(=O)[C@H](N)c3ccccc3)[C@H]2SC1 [S, Cefalexin]
Cumulation percent of MIC [2]: 4% | Cumulation percent of MIC ([1]; MIC 6.25 μg/ml): 23% | Cumulation percent of MIC ([1]; MIC 25 μg/ml): 45% | Cumulation percent of MIC ([1]; MIC 50 μg/ml): 68% | Cumulation percent of MIC ([1]; MIC 100 μg/ml): 86% | Cumulation percent of MIC ([1]; MIC 200 μg/ml): 100%
